Test system: V1 receptor
Assay: V1 antagonism in conscious rats (oral administration)
Format: in vivo, rat
Conditions: 10 mg/kg oral, AVP 30 mU/kg i.v.

CC(=O)NCCCOc1ccc(C(=O)N2CCC(N3C(=O)CCc4ccccc43)CC2)cc1
Pressure increase by AVP (diastolic blood pressure, pre-dose increase = 100%) (4 hours after administration): 100% | Pressure increase by AVP (diastolic blood pressure, pre-dose increase = 100%) (only from 30 minutes to 1 hour after administration): ≤ 50%

— patent publication US5723606A, “Condensed benzazepine derivative and pharmaceutical composition thereof” (priority 1993, dated 1998)
